# Legend:
# Protein sequences, listed by entry. Tags and fused reporters are not part of them.
# UniProt Q07817, whole entry: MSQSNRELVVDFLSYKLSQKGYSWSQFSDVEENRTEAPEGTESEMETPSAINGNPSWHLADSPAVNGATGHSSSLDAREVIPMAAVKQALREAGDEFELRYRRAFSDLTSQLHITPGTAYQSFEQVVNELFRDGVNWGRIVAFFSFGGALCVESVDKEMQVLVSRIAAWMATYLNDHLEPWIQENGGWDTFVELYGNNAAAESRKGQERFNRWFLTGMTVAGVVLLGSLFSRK
# [1] = biological target: Bcl-XL binding to Bax and Bim (Homo sapiens, UniProt Q07817); assay: GST pull-down, GST-Bcl-XL with Bax and Bim from cell lysates; details: HEK293T and A549 cell lysates; 0, 50, 100 μM BH3-M6 or 100 μM TPC; tested form: diammonium salt (as drawn, CO2NH4)
# Source text: FIG. 2 is a series of images illustrating that BH3-M6, but not TPC, inhibits the binding of anti-apoptotic proteins to pro-apoptotic proteins in vitro. (A) a series of graphs illustrating that BH3-M6 blocks the binding of Bak BH3 α-helix to Bcl-XL (left) or Bim BH3 α-helix to Mcl-1 (right) as measured by fluorescence polarization assay, black circles: BH3-M6, open triangles: TPC. (B) BH3-M6 inhibits the interaction of Bcl-XL or Mcl-1 with Bax and Bim as measured by GST pull-down assay. Purified GST, GST-Bcl-XL and GST-Mcl-1 fusion proteins immobilized on glutathione-Sepharose beads were incubated for 1 h with 0, 50 and 100 μM BH3-M6 or 100 μM TPC, followed by addition of cell extracts from HEK293T or A549 cells for 1 h. Proteins associated with beads were eluted and analyzed by Western blotting with Bax and Bim antibodies.
# Whole cell lysates of HEK293T and A549 cells were prepared using NP-40 lysis buffer (see above). […]
# The inventors next determined whether in lysates from HEK293T or A549 cells, BH3-M6 was able to disrupt the interaction between full-length Bax and Bim to full-length Bcl-XL and Mcl-1, respectively, in GST pull-down assays.
# [2] = biological target: Flag-Bim with HA-Bcl-XL (Homo sapiens, UniProt Q07817); assay: Co-immunoprecipitation from HEK293T cells; details: 0-100 μM BH3-M6 or 100 μM TPC, 2 h, tested form: diammonium salt (as drawn, CO2NH4)
# Method: FIG. 4 is a series of images illustrating BH3-M6 inhibits the interaction between Bcl-XL, Bcl-2, and Mcl-1 with Bim, Bak or Bax in intact cells. (A) Co-immunoprecipitation from HEK293T cells. HEK293T cells were co-transfected with HA-Bcl-XL and Flag-BimEL for 18 h. Cells were exposed to 0, 25, 50, and 100 μM of BH3-M6 or 100 μM of TPC for 2 h at 37° C., lysed and subjected to immunoprecipitation with anti-FLAG-M2 beads. The resulting immune complexes, as well as total lysates, were analyzed by Western blotting with the indicated antibodies. (B) Co-immunoprecipitation from MDA-MB-468 cells expressing Bcl-XL-IRES-BimEL, Bcl-2-IRES-BimEL, and Mcl-1-IRES-BimEL. […] The resulting immune complexes were analyzed by Western blotting with Bim, Bcl-XL, Bcl-2, and Mcl-1 antibodies. […] The resulting immune complexes were analyzed by Western blotting with the indicated antibodies. […] The resulting immune complexes were analyzed by Western blotting with the antibodies indicated on the right.
# HEK293T cells were co-transfected with 5 μg of pcDNA3, pCMV2, pcDNA3-HA-Bcl-XL or pCMV2-Flag-BimEL expression vectors using TransFectin™ reagent (Bio-Rad Laboratories, Hercules, Calif.) and, after 18 h, exposed to DMSO, BH3-M6, or TPC (terphenyl control) for 2 h at 37° C. […] Beads were washed four times with lysis buffer, boiled for 5 min in Laemmli sample buffer and analyzed by Western blotting. […]
structure (smiles),measurement,setting,value
CC(C)Cc1cc(-c2ccc(-c3ccc(CCC(=O)O)cc3CC(C)C)cc2Cc2ccccc2)ccc1OCC(=O)O,inhibition of the binding of Bcl-XL to Bax and Bim,[1],dose-dependent inhibition
same,inhibition of association of Flag-Bim with HA-Bcl-XL,[2],inhibited the association of Flag-Bim with HA-Bcl-XL in a dose-dependent manner

# — US20130295185A1, “COMPOUNDS AND METHODS FOR INDUCING APOPTOSIS IN CANCER CELLS USING A BH3 ALPHA-HELICAL MIMETIC” (H. Lee Moffitt Cancer Center and Research Institute, Inc., priority 2011, published 2013)
